How the values were obtained:
[1] = tested on: H295R adrenocortical cells; test: inhibition of forskolin-stimulated cortisol synthesis by H295R cells; assay type: cell-based, human; conditions: read-out: IC50 for cortisol synthesis; 48 hrs, 20 μM forskolin, ELISA
animals = conditions: LD50/ED50; cited from earlier work

SMILES: CCOC(=O)c1cncn1[C@H](C)c1ccccc1
- IC50 [1]: 1.3 nM
- therapeutic index (animals): 26.4

From US9181197B2 (priority 2008, dated 2015)
